Only a part of the results on these compounds is given; other tests are left out.
Columns and labels:
Nav1.8 = Nav1.8 (Homo sapiens, UniProt Q9Y5Y9); assay: Inhibition of Nav1.8 channel current in HEK cells stably expressing Nav1.8; format: cell-based; details: read-out: IC50 for the inhibition of Nav1.8; HEK cells stably expressing Nav1.8, channel current
Nav1.7 = Nav1.7 (Homo sapiens, UniProt Q15858); assay: Inhibition of Nav1.7 channel current in CHO cells stably expressing Nav1.7; format: cell-based; details: read-out: IC50 for the inhibition of Nav1.7; CHO cells stably expressing Nav1.7, channel current
[1] = test system: corneal reflex in rabbits; assay: Anesthetic effect on the corneal surface of New Zealand rabbits (corneal reflex inhibition, CRI); format: in vivo, New Zealand white rabbits; details: 3% (m/V); for CRI (%): 100 μL on left eyeball, mean ± SD
Description: New Zealand white rabbits were weighed. […] A single administration of 3 mg/animal (100 μL) was performed on the surface of the eyeball, and the drug concentration was 3% (m/V) in each case (wherein a Tris solution was added to aspirin to facilitate dissolution). Each group included 12 rabbits. […] An equal volume of normal saline was dropped onto the right eyeball as the self-negative control. […] After 30 minutes of administration, it was tested every 15 minutes. After the corneal reflex returned to the pre-dose level, the test was stopped. By comparing the corneal reflex on the administration side and the self-negative control side, the effect of the compound on the corneal reflex after administration was judged. Corneal reflex inhibition (CRI) was used to evaluate the effect of drugs on corneal reflex. CRI was calculated as follows: […]

Protein sequences, listed by entry. Tags and fused reporters are not part of them.
UniProt Q9Y5Y9, whole entry: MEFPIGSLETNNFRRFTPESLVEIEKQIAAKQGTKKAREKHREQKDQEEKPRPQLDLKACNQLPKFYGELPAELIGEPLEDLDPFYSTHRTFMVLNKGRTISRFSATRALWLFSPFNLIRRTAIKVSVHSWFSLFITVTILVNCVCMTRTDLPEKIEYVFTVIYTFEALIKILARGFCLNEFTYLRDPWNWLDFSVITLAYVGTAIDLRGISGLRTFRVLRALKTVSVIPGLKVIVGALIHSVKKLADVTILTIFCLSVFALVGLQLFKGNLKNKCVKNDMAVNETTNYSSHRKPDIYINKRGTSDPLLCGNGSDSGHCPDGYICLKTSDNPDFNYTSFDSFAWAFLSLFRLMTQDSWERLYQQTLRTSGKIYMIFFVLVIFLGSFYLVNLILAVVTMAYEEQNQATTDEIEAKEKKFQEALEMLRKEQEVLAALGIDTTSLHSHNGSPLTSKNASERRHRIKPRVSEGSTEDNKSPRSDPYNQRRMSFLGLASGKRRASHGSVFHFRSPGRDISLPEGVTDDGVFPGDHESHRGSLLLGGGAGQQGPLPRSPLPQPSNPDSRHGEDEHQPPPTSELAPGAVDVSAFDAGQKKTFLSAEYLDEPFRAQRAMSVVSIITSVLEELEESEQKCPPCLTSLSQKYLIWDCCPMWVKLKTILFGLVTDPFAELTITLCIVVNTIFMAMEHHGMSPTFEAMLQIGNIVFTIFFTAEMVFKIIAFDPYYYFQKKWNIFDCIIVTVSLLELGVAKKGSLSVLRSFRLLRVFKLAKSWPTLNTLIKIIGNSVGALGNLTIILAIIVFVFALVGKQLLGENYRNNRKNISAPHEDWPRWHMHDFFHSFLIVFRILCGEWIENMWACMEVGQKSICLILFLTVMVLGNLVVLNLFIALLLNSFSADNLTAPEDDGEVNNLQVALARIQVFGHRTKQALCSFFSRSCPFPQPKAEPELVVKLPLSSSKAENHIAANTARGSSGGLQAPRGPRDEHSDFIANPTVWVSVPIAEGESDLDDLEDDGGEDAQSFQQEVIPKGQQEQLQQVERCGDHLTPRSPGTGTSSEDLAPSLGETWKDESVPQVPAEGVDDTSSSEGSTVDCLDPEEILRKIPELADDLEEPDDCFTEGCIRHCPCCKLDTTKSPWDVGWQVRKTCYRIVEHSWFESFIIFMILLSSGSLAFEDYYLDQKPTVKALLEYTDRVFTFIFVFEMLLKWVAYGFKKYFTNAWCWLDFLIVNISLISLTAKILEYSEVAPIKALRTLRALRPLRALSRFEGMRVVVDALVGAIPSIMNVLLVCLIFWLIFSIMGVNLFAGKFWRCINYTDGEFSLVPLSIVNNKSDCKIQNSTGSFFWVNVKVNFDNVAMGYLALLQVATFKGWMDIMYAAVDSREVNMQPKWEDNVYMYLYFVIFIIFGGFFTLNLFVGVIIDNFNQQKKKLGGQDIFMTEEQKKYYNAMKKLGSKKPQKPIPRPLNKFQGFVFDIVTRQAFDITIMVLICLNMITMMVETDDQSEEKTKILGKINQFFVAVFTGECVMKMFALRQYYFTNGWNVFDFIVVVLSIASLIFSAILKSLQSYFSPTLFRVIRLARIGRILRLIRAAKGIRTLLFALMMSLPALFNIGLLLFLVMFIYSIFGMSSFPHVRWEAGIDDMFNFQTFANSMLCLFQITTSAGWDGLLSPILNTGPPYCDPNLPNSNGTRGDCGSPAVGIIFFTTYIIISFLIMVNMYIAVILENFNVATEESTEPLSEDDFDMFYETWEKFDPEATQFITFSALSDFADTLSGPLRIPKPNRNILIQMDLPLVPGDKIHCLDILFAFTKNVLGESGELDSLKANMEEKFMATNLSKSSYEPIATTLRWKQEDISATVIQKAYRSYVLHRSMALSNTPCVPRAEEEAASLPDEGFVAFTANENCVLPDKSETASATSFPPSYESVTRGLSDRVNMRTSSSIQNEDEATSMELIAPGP
UniProt Q15858, whole entry: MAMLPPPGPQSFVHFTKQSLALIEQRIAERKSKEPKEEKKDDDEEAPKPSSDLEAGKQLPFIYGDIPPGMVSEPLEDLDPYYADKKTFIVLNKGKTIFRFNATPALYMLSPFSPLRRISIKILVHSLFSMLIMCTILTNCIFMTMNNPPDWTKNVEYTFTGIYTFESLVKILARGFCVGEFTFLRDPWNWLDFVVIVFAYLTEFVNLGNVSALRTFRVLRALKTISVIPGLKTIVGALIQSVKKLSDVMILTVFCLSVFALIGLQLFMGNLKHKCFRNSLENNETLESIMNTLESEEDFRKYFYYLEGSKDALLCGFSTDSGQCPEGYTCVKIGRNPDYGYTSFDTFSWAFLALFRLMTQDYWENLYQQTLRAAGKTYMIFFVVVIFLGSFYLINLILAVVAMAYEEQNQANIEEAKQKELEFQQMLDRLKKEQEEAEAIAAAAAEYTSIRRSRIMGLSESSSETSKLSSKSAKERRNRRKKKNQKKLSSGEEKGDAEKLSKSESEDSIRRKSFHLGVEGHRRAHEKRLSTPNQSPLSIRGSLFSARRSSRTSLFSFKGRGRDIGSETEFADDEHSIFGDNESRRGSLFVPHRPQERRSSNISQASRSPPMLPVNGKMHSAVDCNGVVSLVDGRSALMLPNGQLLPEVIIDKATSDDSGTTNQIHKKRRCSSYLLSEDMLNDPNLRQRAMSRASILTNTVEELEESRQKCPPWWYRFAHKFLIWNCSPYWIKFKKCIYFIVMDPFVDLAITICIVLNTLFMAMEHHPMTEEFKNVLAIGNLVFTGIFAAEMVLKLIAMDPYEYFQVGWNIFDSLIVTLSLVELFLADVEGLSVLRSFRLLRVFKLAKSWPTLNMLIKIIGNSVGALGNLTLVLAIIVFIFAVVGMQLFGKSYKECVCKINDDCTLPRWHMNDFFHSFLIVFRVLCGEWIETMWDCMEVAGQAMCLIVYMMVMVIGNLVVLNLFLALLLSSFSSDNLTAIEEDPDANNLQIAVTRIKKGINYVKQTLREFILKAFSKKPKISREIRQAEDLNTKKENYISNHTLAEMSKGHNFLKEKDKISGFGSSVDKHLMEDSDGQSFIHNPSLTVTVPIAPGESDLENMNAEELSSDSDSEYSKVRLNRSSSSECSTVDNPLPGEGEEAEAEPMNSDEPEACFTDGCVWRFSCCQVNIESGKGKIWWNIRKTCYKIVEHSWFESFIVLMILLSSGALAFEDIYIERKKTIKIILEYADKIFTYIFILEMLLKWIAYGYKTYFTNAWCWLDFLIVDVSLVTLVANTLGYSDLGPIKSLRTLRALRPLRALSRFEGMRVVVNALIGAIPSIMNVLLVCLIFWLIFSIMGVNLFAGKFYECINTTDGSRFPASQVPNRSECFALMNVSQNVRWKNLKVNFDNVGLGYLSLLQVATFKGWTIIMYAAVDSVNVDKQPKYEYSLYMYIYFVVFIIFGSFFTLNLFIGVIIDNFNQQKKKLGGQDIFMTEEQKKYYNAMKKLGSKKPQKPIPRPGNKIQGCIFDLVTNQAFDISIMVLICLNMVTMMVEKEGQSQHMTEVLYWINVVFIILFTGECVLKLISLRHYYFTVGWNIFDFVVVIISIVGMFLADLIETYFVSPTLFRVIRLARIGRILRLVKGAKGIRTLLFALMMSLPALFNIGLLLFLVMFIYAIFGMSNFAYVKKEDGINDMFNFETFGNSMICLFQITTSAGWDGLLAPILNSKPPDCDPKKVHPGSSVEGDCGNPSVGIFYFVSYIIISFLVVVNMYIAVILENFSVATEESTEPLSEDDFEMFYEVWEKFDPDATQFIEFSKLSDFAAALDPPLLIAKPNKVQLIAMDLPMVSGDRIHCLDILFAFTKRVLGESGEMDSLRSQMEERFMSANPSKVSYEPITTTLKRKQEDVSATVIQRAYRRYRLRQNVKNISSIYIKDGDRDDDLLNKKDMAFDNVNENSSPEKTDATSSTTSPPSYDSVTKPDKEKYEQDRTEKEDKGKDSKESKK

[2] = test system: rat dorsal root ganglion (DRG) neurons; assay: Patch clamp inhibition of action potential of acutely isolated rat DRG neurons; format: cell-based; details: read-out: IC50 for inhibition of action potential of DRG neuron

## salicylic acid-(2-diethylaminoethyl ester) hydrochloride
Nav1.8
  IC50: 73.1 µM
Nav1.7
  IC50: 24.7 µM
[1]; 0 min
  CRI (%): 0.0 ± 0.0%
[1]; 10 min after administration
  CRI (%): 96.7 ± 6.5%
[1]; 15 min after administration
  CRI (%): 95.9 ± 9.8%
[1]; 20 min after administration
  CRI (%): 87.5 ± 11.9%
[1]; 25 min after administration
  CRI (%): 79.4 ± 12.2%
[1]; 30 min after administration
  CRI (%): 60.2 ± 12.4%
[1]; 45 min after administration
  CRI (%): 13.5 ± 9.9%
[1]; 60 min after administration
  CRI (%): 0.0 ± 0.0%
[1]; ophthalmic administration, rabbits
  local anesthetic effect (in words): had a local anesthesia effect for ophthalmic administration, with quick onset
[2]
  IC50: 35 µM

From patent US11278513B2, “Diethylamino compounds for use as local anesthetics” (Zhejiang Yuejia Pharmaceuticals Co., Ltd, priority 2017, dated 2022)
